Experimental data published in paper PMC7499187 (CPT: Pharmacometrics & Systems Pharmacology, 2020).

Experiment: Semimechanistic population PK model
Assay type: in vivo, human
Details: well-stirred model

CCN1CCN(Cc2ccc(Nc3ncc(F)c(-c4cc(F)c5nc(C)n(C(C)C)c5c4)n3)nc2)CC1 [Abemaciclib]
fraction of drug entering the liver that escaped hepatic metabolism, Fh: 0.719
